# Test results as given in publication PMC10787068, “Targeting the Mitochondrial Chaperone TRAP1 Alleviates Vascular Pathologies in Ischemic Retinopathy” (Advanced Science, 2023).
# Tested on: cytoplasmic Hsp90
# Assay: Cytoplasmic Hsp90 inhibition in MIO-M1 cells (western blotting)
# Assay type: cell-based, human
# Conditions: 6 hr
smiles,measurement,value
"CO[C@H]1/C=C\C=C(/C)C(=O)NC2=CC(=O)C(NCCN(C)C)=C(C[C@@H](C)C[C@H](OC)[C@H](O)[C@@H](C)/C=C(\C)[C@@H]1OC(N)=O)C2=O [DMAG, 17‐Dimethyl‐aminothylamino‐17‐demethoxy‐geldanamycin]",Hsp90 client protein checkpoint kinase 1 (Chk1) level,downregulated
